Like-named read-outs stand apart in the source and are kept apart here.
How the values were obtained:
AChE [1] = biological target: T1, AChE (Homo sapiens, UniProt P22303); type: biochemical
T1 construct: purchased Sigma
Procedure: For the reaction system, see Table 3. The specific steps are described below.
140 µL of phosphate buffer (PBS, 0.1 mol/L, pH = 7.4), 20 µL of AChE (0.303 U/mL) and 20 µL of sample solution were added in sequence to a 96-well plate, mixed evenly, and added with 10 µL of DTNB (3.3 mM) and 10 µL of acetylthiocholine iodide (ATCI) (15 mM). They were mixed evenly and incubated for 10 min at 37 °C, then measured absorbance at 405 nm.
The sample was replaced with PBS in a blank enzyme group. The sample was replaced with PBS in a blank enzyme-free group. The enzyme solution was replaced with PBS in the sample control group.
The inhibitory rate of the sample against AChE activity is calculated by the following formula: Inhibitory rate = [1−(Asample−Asample control)/(Ablank enzyme−Ablank enzyme−free)] × 100% [formula]
The median inhibitory concentration of AChE was calculated by testing inhibitory rates at different sample concentrations. […] Table 3 Anti-AChE activity screening method

By UniProt entry, the sequences of proteins in these tests, tags left out. Residues count along the entry.
UniProt P22303, 32-614: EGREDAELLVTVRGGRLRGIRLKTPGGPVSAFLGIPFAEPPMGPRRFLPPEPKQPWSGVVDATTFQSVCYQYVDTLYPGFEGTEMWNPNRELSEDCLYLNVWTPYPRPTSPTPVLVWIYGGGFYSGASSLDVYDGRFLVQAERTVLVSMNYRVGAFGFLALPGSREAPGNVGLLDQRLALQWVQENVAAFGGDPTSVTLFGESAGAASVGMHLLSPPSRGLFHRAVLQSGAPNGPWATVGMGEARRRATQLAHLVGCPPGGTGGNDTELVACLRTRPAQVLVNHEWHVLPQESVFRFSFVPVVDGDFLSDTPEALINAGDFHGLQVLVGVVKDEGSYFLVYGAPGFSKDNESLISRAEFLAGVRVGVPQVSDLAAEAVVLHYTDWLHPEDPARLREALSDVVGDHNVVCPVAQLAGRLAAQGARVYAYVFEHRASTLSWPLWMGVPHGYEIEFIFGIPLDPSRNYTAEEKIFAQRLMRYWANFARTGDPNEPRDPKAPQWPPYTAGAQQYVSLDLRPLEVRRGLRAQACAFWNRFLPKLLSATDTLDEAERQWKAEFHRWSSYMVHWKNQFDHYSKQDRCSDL

AChE [2] = biological target: T1, AChE; experiment: synergistic effect of combined active components (FIC) by AChE assay method; type: biochemical; conditions: first compound diluted, added compounds fixed at IC30; unit not in table; read-out: IC Value (Standard Deviation) IC50 (converted)
Procedure: With reference to the method of D. Kaufmann et al. (D. Kaufmann, A.K. Dogra, A. Tahrani, F. Herrmann, M. Wink, Extracts from Traditional Chinese Medicinal Plants Inhibit Acetylcholinesterase, a Known Alzheimer's Disease Target, Molecules, 2016(21): 1161-1177.), each active monomer component was accurately weighed for 1.0 mg and dissolved with acetonitrile-water (3:7) to a concentration of 1 mg/mL. One pharmaceutical component, compound A, was selected and diluted step by step according to 1:1; the concentration of a second pharmaceutical component, compound B, was fixed to IC30; based on a size of a fractional inhibitory concentration (FIC) value, the concentration of compound A was fixed, the concentration of pharmaceutical compound B was changed, and the FIC value was determined.
Fractional effects (FEs) of the two compounds are as follows: FEA = IC50 (A+B)/IC50 (A) [formula] FEB = IC50 (A+B)/IC50 (B) [formula] FIC = FEA + FEB [formula] […]
The IC30 of active compounds A, B and C was calculated using SPSS 21.0 software, compound A was diluted stepwise and added to a 96-well plate, and then compound B with a fixed concentration of IC30 was added to the 96-well plate, which were determined by an AChE assay method, and the FIC value was also determined.
By analogy, all possible combinations were calculated. […]

`COc1ccc2cc3[n+](cc2c1OC)CCc1cc2c(cc1-3)OCO2` [Ber, berberine] gave an IC50 (AChE [1]) of 7.46 µM and an IC50 (AChE [2]) of 7.46 µM.
